The values below come from BindingDB's records for PubMed 1930610 (Eli Lilly, 1991).

Chains of the proteins cited; added tags and fusions are not shown.
UniProt P14842, whole entry: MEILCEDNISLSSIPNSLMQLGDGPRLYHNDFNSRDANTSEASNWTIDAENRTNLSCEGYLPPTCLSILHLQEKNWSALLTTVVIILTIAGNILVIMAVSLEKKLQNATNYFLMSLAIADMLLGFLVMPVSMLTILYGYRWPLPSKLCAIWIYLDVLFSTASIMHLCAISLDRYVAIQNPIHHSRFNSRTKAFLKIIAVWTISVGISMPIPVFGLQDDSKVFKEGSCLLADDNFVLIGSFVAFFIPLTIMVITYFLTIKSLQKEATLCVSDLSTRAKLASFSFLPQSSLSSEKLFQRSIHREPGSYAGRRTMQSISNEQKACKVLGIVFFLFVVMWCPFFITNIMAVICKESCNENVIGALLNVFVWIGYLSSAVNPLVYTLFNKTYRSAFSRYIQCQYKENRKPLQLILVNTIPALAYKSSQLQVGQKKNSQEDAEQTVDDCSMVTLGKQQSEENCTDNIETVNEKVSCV

Where a name gives a salt, the structure may show the parent alone.

This experiment has as its target 5-hydroxytryptamine receptor 2A (Rattus norvegicus, UniProt P14842).

Broadly, the Ki is a measure of affinity in units of concentration, obtained from inhibition or displacement. Higher therefore signals lower affinity. `CN(C)CCCC1(c2ccc(F)cc2)OCc2cc(C#N)ccc21` (stereo unspecified) [CITALOPRAM HYDROBROMIDE] yielded a Ki of 5.37 µM.
